These are literature values, as cited in patent publication US5939096A, “Liposome drug-loading method and composition” (priority 1997, dated 1999).

For this data set the following is noted: pH 7; cited from earlier work.

Structures are written as SMILES.

For the molecule `CCn1cc(C(=O)O)c(=O)c2ccc(C)nc21` [nalidixic acid], the “partition coefficient Kp” value is on record as 3.34 ± 0.08.
